# From ChEMBL document CHEMBL3396955, “Discovery of non-electrophilic capsaicinoid-type TRPA1 ligands” (Bioorg Med Chem Lett, 2015)
# The chains behind the UniProt entries cited, without tags or fusion partners.
# UniProt Q6RI86, whole entry: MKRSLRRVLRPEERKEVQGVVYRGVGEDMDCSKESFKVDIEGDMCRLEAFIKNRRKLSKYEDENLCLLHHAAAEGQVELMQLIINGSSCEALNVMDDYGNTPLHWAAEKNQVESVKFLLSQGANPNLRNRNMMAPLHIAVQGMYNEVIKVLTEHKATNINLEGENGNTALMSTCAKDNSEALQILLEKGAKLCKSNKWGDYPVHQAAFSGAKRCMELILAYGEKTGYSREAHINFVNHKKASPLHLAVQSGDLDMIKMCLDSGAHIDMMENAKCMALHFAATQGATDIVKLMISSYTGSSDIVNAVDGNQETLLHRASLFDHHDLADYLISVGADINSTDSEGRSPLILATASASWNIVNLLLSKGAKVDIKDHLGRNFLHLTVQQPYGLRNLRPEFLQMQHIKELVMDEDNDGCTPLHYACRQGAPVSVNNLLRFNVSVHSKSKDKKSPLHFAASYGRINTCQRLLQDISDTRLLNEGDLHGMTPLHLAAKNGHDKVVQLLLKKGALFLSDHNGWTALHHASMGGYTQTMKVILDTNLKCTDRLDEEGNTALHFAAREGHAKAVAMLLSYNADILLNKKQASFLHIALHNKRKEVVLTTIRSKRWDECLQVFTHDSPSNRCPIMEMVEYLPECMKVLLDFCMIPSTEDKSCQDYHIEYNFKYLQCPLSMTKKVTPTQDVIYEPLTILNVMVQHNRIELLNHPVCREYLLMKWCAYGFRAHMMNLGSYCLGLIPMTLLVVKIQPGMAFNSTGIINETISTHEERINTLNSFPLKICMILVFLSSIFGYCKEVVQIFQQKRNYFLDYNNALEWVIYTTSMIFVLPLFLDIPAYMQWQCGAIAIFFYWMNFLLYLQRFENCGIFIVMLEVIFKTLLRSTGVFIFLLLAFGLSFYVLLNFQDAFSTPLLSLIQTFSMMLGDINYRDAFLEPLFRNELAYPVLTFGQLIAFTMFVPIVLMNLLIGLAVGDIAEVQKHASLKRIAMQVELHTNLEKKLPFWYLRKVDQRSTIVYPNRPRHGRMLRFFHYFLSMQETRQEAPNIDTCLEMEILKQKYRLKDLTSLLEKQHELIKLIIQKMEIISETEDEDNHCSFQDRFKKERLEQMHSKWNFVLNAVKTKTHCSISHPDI
# How the values were obtained:
# [1] = molecular target: T1, Transient receptor potential cation channel subfamily A member 1 (Rattus norvegicus, UniProt Q6RI86); assay: Agonist activity at rat recombinant TRPA1 expressed in HEK293 cells assessed as Ca2+ influx by Fluo-4 dye based assay; assay type: cell-based
# [2] = molecular target: T1, Transient receptor potential cation channel subfamily A member 1; assay: Antagonist activity against rat recombinant TRPA1 expressed in HEK293 cells assessed as inhibition of AITC-induced Ca2+ influx pre-treated 5 mins before capsaicin addition by Fluo-4 dye based assay; assay type: cell-based
smiles,measurement,setting,value
C=CCN=C=S [ALLYL ISOTHIOCYANATE],EC50,[1],2 µM
same,IC50,[2],85.9 µM
